PubChem BioAssay (Tox21)
Values joined by “and” are separate entries in the source; they are usually repeats but may differ in a detail not shown here. Equal values may be shown once. The entries are a selection whose mix differs from that of the whole data set. Results filed as inconclusive are left out. Active and inactive are the calls of the source. Calls come from the whole dose curve; as a rule, active = well fitted activation curve with a large enough effect in the repeat runs; inconclusive = weak or mixed curves, or effect the other way; inactive = no such curve, though single readings can be large or run the other way.

Assay: qHTS assay to identify small molecule agonists of the retinoic acid receptor (RAR) signaling pathway (AID 1159553)
Details: C3RL4 RARE luciferase reporter, agonist, 6 h; at 73.3 µM (top of the series) unless noted
From the text: National Center for Advancing Translational Sciences [NCATS] NIH Chemical Genomics Center [NCGC] U.S. Environmental Protection Agency [EPA] National Institutes of Environmental Health Sciences [NIEHS] National Toxicology Program [NTP] Assay overview: All-trans Retinoic acid (atRA) is the potent natural metabolite of retinol and plays an important role in normal embryonic development and maintenance of cellular phenotype in adult animals. atRA is the activating ligand for the retinoic acid receptors (RARs) which form heterodimers with retinoid X receptors (RXRs) on the retinoic acid response element (RARE). Through activation of the RAR/RXRs nuclear receptors, atRA regulates the transcription of a large number of protein-coding genes and regulatory RNAs. Intracellular levels of atRA are controlled by the retinol signaling pathway (RSP) that regulates the biosynthesis and catabolism of atRA to maintain physiological levels. Chemicals that interfere with the RSP can cause abnormal intracellular levels of atRA and therefore are potential developmental toxicants. To assess compounds for the potential adverse effect on embryonic development through interfering with retinol signaling, a cell-based RARE luciferase reporter gene assay was used. C3RL4 cell line (OARSA/CFSAN/FDA, Laurel, MD) was used to screen Tox21 10K compound library for identifying activators of the RSP.
Assay Protocol Summary: C3RL4 cells were seeded at 1,000/well in 5 uL of assay medium into white solid 1,536-well tissue culture plates (Greiner Bio-One North America Inc. Monroe, NC) using a Multidrop Combi (Thermo Scientific, Waltham, MA) dispenser. After incubation at 37 C and 5% CO2 for an overnight, 23 nL of compounds dissolved in DMSO, positive control or DMSO only were transferred by a Pintool station (Kalypsys, San Diego, CA). After 6 hr incubation at 37 C and 5% CO2, 5 uL of Amplite Luciferase reagent (AAT Bioquest Inc. Sunnyvale, CA) was added to each assay plate using a Flying Reagent Dispenser (FRD) (Aurora Discovery, San Diego, CA). Luminescence was quantified on a ViewLux plate reader (PerkinElmer, Waltham, MA) after 30 min incubation at room temperature.
% is set by controls: 0 for no effect and ±100 for the full control effect.

SMILES	activation
CN(N=O)C(=N)N[N+](=O)[O-]	inactive: 4.24%
CN(C(=O)Cc1ccccc1)[C@H]1CC[C@@]2(CCCO2)C[C@@H]1N1CCCC1	inactive: -1.09%
ClP(Cl)c1ccccc1	inactive: -0.498%
COC(=O)Cl	inactive: 0.506%
NC(=O)Nc1ccc([As](=O)(O)O)cc1	inactive: 1.07% and inactive: -0.0498%
CCOP(=S)(CC)Sc1ccccc1 (centres undefined)	inactive: -2.18%
CN(C(=O)Cc1cccc2occc12)[C@H]1CC[C@@]2(CCCO2)C[C@@H]1N1CCCC1	inactive: 1.64%
COP(=S)(Cl)OC	inactive: -2.66% [at 94.8 µM]
CN(C(=O)Cc1ccc(Cl)c(Cl)c1)[C@H]1CC[C@@]2(CCCO2)C[C@@H]1N1CCCC1	inactive: -4.09%
CCOC(=O)Cl	inactive: -1.8%
CC(C)CCCCCCCOP(OCCCCCCCC(C)C)Oc1ccccc1	inactive: 13.7%
Cc1cc([N+](=O)[O-])cc([N+](=O)[O-])c1O	inactive: -15.6%
CCCCC(CC)CO[P+](=O)OCC(CC)CCCC (centres undefined)	inactive: -0.308%
O=[P+](Oc1ccccc1)Oc1ccccc1	inactive: -0.713%
